Measured values from US12171806B2, “Therapeutic regimens and methods for lowering blood glucose and/or body weight using GLP-1R and GCGR balanced agonists” (priority 2021, dated 2024).

Assay: Phase 1 MAD study of ALT-801: adverse events (TEAEs), safety overview
[1] = severity not given, only four group pairs printed, dose group of each cell unclear

SMILES: CC[C@H](C)[C@H](NC(=O)[C@H](Cc1ccccc1)NC(=O)[C@H](CCC(=O)O)NC(=O)[C@@H]1CCCCNC(=O)CC[C@H](NC(=O)[C@H](CC(=O)O)NC(=O)[C@H](CC(C)C)NC(=O)[C@H](Cc2ccc(O)cc2)NC(=O)[C@H](CCCCN)NC(=O)[C@H](CO)NC(=O)[C@H](Cc2ccc(O)cc2)NC(=O)[C@H](CC(=O)O)NC(=O)[C@H](CO)NC(=O)[C@@H](NC(=O)[C@H](Cc2ccccc2)NC(=O)[C@@H](NC(=O)CNC(=O)[C@H](CCC(N)=O)NC(=O)C(C)(C)NC(=O)[C@@H](N)Cc2c[nH]cn2)[C@@H](C)O)[C@@H](C)O)C(=O)N[C@@H](CCCCNC(=O)[C@H]2O[C@@H](OCCCCCCCCCCCCCCCCCC(=O)O)[C@H](O)[C@@H](O)[C@@H]2O)C(=O)N[C@@H](C)C(=O)N[C@@H](C)C(=O)N1)C(=O)N[C@@H](CCC(N)=O)C(=O)N[C@@H](Cc1c[nH]c2ccccc12)C(=O)N[C@@H](CC(C)C)C(=O)N[C@@H](CC(C)C)C(=O)N[C@@H](CCC(N)=O)C(=O)N[C@H](C(N)=O)[C@@H](C)O [ALT-801, pemvidutide]
- TEAE Dermatitis contact, maximum severity Moderate, subjects % (Overall ALT-801 (N = 27)): (0.0%)
- TEAE Dermatitis contact, maximum severity Moderate, subjects n (Overall ALT-801 (N = 27)): 0
- TEAE Dermatitis contact, maximum severity PLT, subjects % (Overall ALT-801 (N = 27)): (0.0%)
- TEAE Dermatitis contact, maximum severity PLT, subjects n (Overall ALT-801 (N = 27)): 0
- TEAE Dermatitis contact, maximum severity Severe, subjects % (Overall ALT-801 (N = 27)): (0.0%)
- TEAE Dermatitis contact, maximum severity Severe, subjects n (Overall ALT-801 (N = 27)): 0
- TEAE Eczema, maximum severity Mild, subjects % (Overall ALT-801 (N = 27)): (11.1%)
- TEAE Eczema, maximum severity Mild, subjects n (Overall ALT-801 (N = 27)): 3
- TEAE Eczema, maximum severity Moderate, subjects % (Overall ALT-801 (N = 27)): (0.0%)
- TEAE Eczema, maximum severity Moderate, subjects n (Overall ALT-801 (N = 27)): 0
- TEAE Eczema, maximum severity PLT, subjects % (Overall ALT-801 (N = 27)): (0.0%)
- TEAE Eczema, maximum severity PLT, subjects n (Overall ALT-801 (N = 27)): 0
- TEAE Eczema, maximum severity Severe, subjects % (Overall ALT-801 (N = 27)): (0.0%)
- TEAE Eczema, maximum severity Severe, subjects n (Overall ALT-801 (N = 27)): 0
- TEAE Hot flush, maximum severity Mild, subjects % (Overall ALT-801 (N = 27)): (3.7%)
- TEAE Hot flush, maximum severity Mild, subjects n (Overall ALT-801 (N = 27)): 1
- TEAE Hot flush, maximum severity Moderate, subjects % (Overall ALT-801 (N = 27)): (0.0%)
- TEAE Hot flush, maximum severity Moderate, subjects n (Overall ALT-801 (N = 27)): 0
- TEAE Hot flush, maximum severity PLT, subjects % (Overall ALT-801 (N = 27)): (0.0%)
- TEAE Hot flush, maximum severity PLT, subjects n (Overall ALT-801 (N = 27)): 0
- TEAE Hot flush, maximum severity Severe, subjects % (Overall ALT-801 (N = 27)): (0.0%)
- TEAE Hot flush, maximum severity Severe, subjects n (Overall ALT-801 (N = 27)): 0
- TEAE Menorrhagia, maximum severity PLT, subjects % (Overall ALT-801 (N = 27)): (0.0%)
- TEAE Menorrhagia, maximum severity PLT, subjects n (Overall ALT-801 (N = 27)): 0
- TEAE Oropharyngeal pain, maximum severity Mild, subjects % (Overall ALT-801 (N = 27)): (3.7%)
- TEAE Oropharyngeal pain, maximum severity Mild, subjects n (Overall ALT-801 (N = 27)): 1
- TEAE Oropharyngeal pain, maximum severity Moderate, subjects % (Overall ALT-801 (N = 27)): (0.0%)
- TEAE Oropharyngeal pain, maximum severity Moderate, subjects n (Overall ALT-801 (N = 27)): 0
- TEAE Oropharyngeal pain, maximum severity PLT, subjects % (Overall ALT-801 (N = 27)): (0.0%)
- TEAE Oropharyngeal pain, maximum severity PLT, subjects n (Overall ALT-801 (N = 27)): 0
- TEAE Oropharyngeal pain, maximum severity Severe, subjects % (Overall ALT-801 (N = 27)): (0.0%)
- TEAE Oropharyngeal pain, maximum severity Severe, subjects n (Overall ALT-801 (N = 27)): 0
- TEAE Papule, maximum severity Mild, subjects % (Overall ALT-801 (N = 27)): (3.7%)
- TEAE Papule, maximum severity Mild, subjects n (Overall ALT-801 (N = 27)): 1
- TEAE Papule, maximum severity Moderate, subjects % (Overall ALT-801 (N = 27)): (0.0%)
- TEAE Papule, maximum severity Moderate, subjects n (Overall ALT-801 (N = 27)): 0
- TEAE Papule, maximum severity PLT, subjects % (Overall ALT-801 (N = 27)): (0.0%)
- TEAE Papule, maximum severity PLT, subjects n (Overall ALT-801 (N = 27)): 0
- TEAE Papule, maximum severity Severe, subjects % (Overall ALT-801 (N = 27)): (0.0%)
- TEAE Papule, maximum severity Severe, subjects n (Overall ALT-801 (N = 27)): 0
- TEAE Pruritus, maximum severity Mild, subjects % (Overall ALT-801 (N = 27)): (3.7%)
- TEAE Pruritus, maximum severity Mild, subjects n (Overall ALT-801 (N = 27)): 1
- TEAE Pruritus, maximum severity Moderate, subjects % (Overall ALT-801 (N = 27)): (0.0%)
- TEAE Pruritus, maximum severity Moderate, subjects n (Overall ALT-801 (N = 27)): 0
- TEAE Pruritus, maximum severity PLT, subjects % (Overall ALT-801 (N = 27)): (0.0%)
- TEAE Pruritus, maximum severity PLT, subjects n (Overall ALT-801 (N = 27)): 0
- TEAE Pruritus, maximum severity Severe, subjects % (Overall ALT-801 (N = 27)): (0.0%)
- TEAE Pruritus, maximum severity Severe, subjects n (Overall ALT-801 (N = 27)): 0
- TEAE Rash, maximum severity Mild, subjects % (Overall ALT-801 (N = 27)): (7.4%)
- TEAE Rash, maximum severity Mild, subjects n (Overall ALT-801 (N = 27)): 2
- TEAE Rash, maximum severity Moderate, subjects % (Overall ALT-801 (N = 27)): (0.0%)
- TEAE Rash, maximum severity Moderate, subjects n (Overall ALT-801 (N = 27)): 0
- TEAE Rash, maximum severity PLT, subjects % (Overall ALT-801 (N = 27)): (0.0%)
- TEAE Rash, maximum severity PLT, subjects n (Overall ALT-801 (N = 27)): 0
- TEAE Rash, maximum severity Severe, subjects % (Overall ALT-801 (N = 27)): (0.0%)
- TEAE Rash, maximum severity Severe, subjects n (Overall ALT-801 (N = 27)): 0
- TEAE Respiratory, thoracic and mediastinal disorders, maximum severity Mild, subjects % (Overall ALT-801 (N = 27)): (7.4%)
- TEAE Respiratory, thoracic and mediastinal disorders, maximum severity Mild, subjects n (Overall ALT-801 (N = 27)): 2
- TEAE Respiratory, thoracic and mediastinal disorders, maximum severity Moderate, subjects % (Overall ALT-801 (N = 27)): (0.0%)
- TEAE Respiratory, thoracic and mediastinal disorders, maximum severity Moderate, subjects n (Overall ALT-801 (N = 27)): 0
- TEAE Respiratory, thoracic and mediastinal disorders, maximum severity PLT, subjects % (Overall ALT-801 (N = 27)): (0.0%)
- TEAE Respiratory, thoracic and mediastinal disorders, maximum severity PLT, subjects n (Overall ALT-801 (N = 27)): 0
- TEAE Respiratory, thoracic and mediastinal disorders, maximum severity Severe, subjects % (Overall ALT-801 (N = 27)): (0.0%)
- TEAE Respiratory, thoracic and mediastinal disorders, maximum severity Severe, subjects n (Overall ALT-801 (N = 27)): 0
- TEAE Skin and subcutaneous tissue disorders, maximum severity Mild, subjects % (Overall ALT-801 (N = 27)): (33.3%)
- TEAE Skin and subcutaneous tissue disorders, maximum severity Mild, subjects n (Overall ALT-801 (N = 27)): 9
- TEAE Skin and subcutaneous tissue disorders, maximum severity Moderate, subjects % (Overall ALT-801 (N = 27)): (0.0%)
- TEAE Skin and subcutaneous tissue disorders, maximum severity Moderate, subjects n (Overall ALT-801 (N = 27)): 0
- TEAE Skin and subcutaneous tissue disorders, maximum severity PLT, subjects % (Overall ALT-801 (N = 27)): (0.0%)
- TEAE Skin and subcutaneous tissue disorders, maximum severity PLT, subjects n (Overall ALT-801 (N = 27)): 0
- TEAE Skin and subcutaneous tissue disorders, maximum severity Severe, subjects % (Overall ALT-801 (N = 27)): (0.0%)
- TEAE Skin and subcutaneous tissue disorders, maximum severity Severe, subjects n (Overall ALT-801 (N = 27)): 0
- TEAE Skin lesion, maximum severity Mild, subjects % (Overall ALT-801 (N = 27)): (3.7%)
- TEAE Skin lesion, maximum severity Mild, subjects n (Overall ALT-801 (N = 27)): 1
- TEAE Skin lesion, maximum severity Moderate, subjects % (Overall ALT-801 (N = 27)): (0.0%)
- TEAE Skin lesion, maximum severity Moderate, subjects n (Overall ALT-801 (N = 27)): 0
- TEAE Skin lesion, maximum severity PLT, subjects % (Overall ALT-801 (N = 27)): (0.0%)
- TEAE Skin lesion, maximum severity PLT, subjects n (Overall ALT-801 (N = 27)): 0
- TEAE Skin lesion, maximum severity Severe, subjects % (Overall ALT-801 (N = 27)): (0.0%)
- TEAE Skin lesion, maximum severity Severe, subjects n (Overall ALT-801 (N = 27)): 0
- TEAE Vascular disorders, maximum severity Mild, subjects % (Overall ALT-801 (N = 27)): (3.7%)
- TEAE Vascular disorders, maximum severity Mild, subjects n (Overall ALT-801 (N = 27)): 1
- TEAE Vascular disorders, maximum severity Moderate, subjects % (Overall ALT-801 (N = 27)): (0.0%)
- TEAE Vascular disorders, maximum severity Moderate, subjects n (Overall ALT-801 (N = 27)): 0
- TEAE Vascular disorders, maximum severity PLT, subjects % (Overall ALT-801 (N = 27)): (0.0%)
- TEAE Vascular disorders, maximum severity PLT, subjects n (Overall ALT-801 (N = 27)): 0
- TEAE Vascular disorders, maximum severity Severe, subjects % (Overall ALT-801 (N = 27)): (0.0%)
- TEAE Vascular disorders, maximum severity Severe, subjects n (Overall ALT-801 (N = 27)): 0
- TEAE Hyperglycemia, subjects % [1]: (0%)
- TEAE Hyperglycemia, subjects n [1]: 0
